Reference: PMC3764209, “Experimentally Validated Novel Inhibitors of Helicobacter pylori Phosphopantetheine Adenylyltransferase Discovered by Virtual High-Throughput Screening” (PLoS ONE, 2013)

Chains of the proteins cited; added tags and fusions are not shown. Lines headed by an entry give the natural chain unless they say otherwise; changes in a name come on top.
UniProt O26010: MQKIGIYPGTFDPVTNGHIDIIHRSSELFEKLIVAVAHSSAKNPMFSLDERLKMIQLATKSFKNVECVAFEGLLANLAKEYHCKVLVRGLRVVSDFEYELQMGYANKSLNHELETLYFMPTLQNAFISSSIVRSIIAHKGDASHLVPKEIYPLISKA

Molecular target: T1, phosphopantetheine adenylyltransferase (HpPPAT) (Helicobacter pylori, UniProt O26010)
T1 construct: gene coaD
Test: biochemical

CN(Cc1cnc2nc(N)nc(N)c2n1)c1ccc(C(=O)N[C@H](CCC(=O)O)C(=O)O)cc1 [compound 72440, D-amethopterin]
Kd: 31.2 ± 0.34 µM
